Consider one compound from ChEMBL document CHEMBL1795228, “Air to lung partition coefficients for volatile organic compounds and blood to lung partition coefficients for volatile organic compounds and drugs” (Eur J Med Chem, 2008).

A short description of this series: In-vivo plasma to lung partition coefficients of the compound, logP(lung) in rat. Type of series: ADME, cell-free.

For `Cc1cc2c(s1)Nc1ccccc1N=C2N1CCN(C)CC1` [OLANZAPINE], the “logP(lung)” value was found to be 1.43.
